## Yeast mating assay 1: variants of the scFv Ab-14

From the AlphaSeq antibody data of Engelhart et al. 2022 (doi:10.1038/s41597-022-01779-4), copy in the FLAb collection.

All variants were tested on one target, the spike HR2 peptide PDVDLGDISGINAS (SARS-CoV-2).

Ab-14 is the parent antibody, in scFv form: VH, then a 15-residue (Gly4Ser)3 linker, then VL. The light chain is unchanged in all variants.
VH: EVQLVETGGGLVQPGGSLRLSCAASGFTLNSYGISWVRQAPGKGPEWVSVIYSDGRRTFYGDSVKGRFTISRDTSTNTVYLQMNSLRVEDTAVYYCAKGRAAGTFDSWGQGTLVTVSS
VL: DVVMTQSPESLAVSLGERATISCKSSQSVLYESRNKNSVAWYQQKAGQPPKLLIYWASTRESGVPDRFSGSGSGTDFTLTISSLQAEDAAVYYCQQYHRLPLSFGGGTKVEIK

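The starting antibody came from a phage panning campaign against this peptide. Library AAYL49 holds single substitutions and randomly drawn double and triple substitutions in the CDRs. In AlphaSeq, yeast of one mating type display the scFv and yeast of the other type display the target. Pairs that bind mate more often; barcode pairs of the diploids are counted by sequencing. Scores were corrected for input abundance and mapped to Kd with protein pairs of known affinity run in the same pool. There are three technical replicates.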

The parent's heavy chain CDRs are GFTLNSYGIS, VIYSDGRRTFYGDSVK, GRAAGTFDS; each variant's own CDRs replace them letter for letter. All variants listed here change I51 of the VH, counted from its first residue. The Kd shown is the geometric mean over detected replicates; a lower Kd is a better binder. "nd" marks a missing value. The strain was present, yet no cells mated with the target were sequenced in any replicate, which points to weak or no binding. Parent in this assay: reference entry 4.4 nM, copy in this library 13 µM (one replicate of three). As a blank, each scFv also met three strains without target: over library AAYL49, 15% of these pairings were detected, typically at 11 µM and seldom below 680 nM. For each scFv, signals with the empty controls are counted beside the result.

CDR-H1,CDR-H2,CDR-H3,Kd,seen in,signal with controls
GFTLNSYGIS,VLYSDGRYTFYGDSVK,RRAAGTFDS,nd,0 of 3,0 of 9
GFKLNSYGIS,VSYSDGRRTFYGDSVK,GRAAGTFDS,3.1 µM,1 of 3,1 of 9
GFTLNSYGIS,SKYSDGRRTFYGDSVK,GRAAGTMDS,nd,0 of 3,1 of 9
GNTLNSYGIS,VWYSDGRRTFYGDSVK,GMAAGTFDS,nd,0 of 3,0 of 9
GFTLNSYGIS,EQYSDGRRTFYGDSVK,GRAAGTFDN,nd,0 of 3,0 of 9
GFTLNSYGIS,VPYSDGRRTFYGDSVK,GRAAGTFDS,4.9 µM,3 of 3,6 of 9
GFTLNSYGIS,VDYSDGRRTFYDDSVK,GRIAGTFDS,180 µM,1 of 3,1 of 9
GFTLNSYGPS,VQYSDGRRTFYGDSVC,GRAAGTFDS,60 µM,1 of 3,1 of 9
GFTLNSYGIS,VHYSDGRRTFYGDSVK,GREAGTRDS,nd,0 of 3,1 of 9
GFTLNAYGIS,VKYSDGRRTFYGDSTK,GRAAGTFDS,nd,0 of 3,1 of 9
GFTGNSYGIS,VNYSDGRRTFYGDSVK,GRADGTFDS,240 µM,1 of 3,0 of 9
GFTKNSYGIS,VMYSDGRRTFYGDSVK,GRAAGTFDS,nd,0 of 3,0 of 9
GFTLNSYGIS,VDESDGRRCFYGDSVK,GRAAGTFDS,nd,0 of 3,0 of 9
GFTLNSYGIS,VAYSDGRVRFYGDSVK,GRAAGTFDS,nd,0 of 3,0 of 9
GFTLNSYGIS,VCYSDGRRTFYGDSVK,GGAEGTFDS,7.9 µM,1 of 3,5 of 9
GFTLNSYGIS,VMYSDGRRTFYFDMVK,GRAAGTFDS,nd,0 of 3,0 of 9
GFTLNSYGIS,VLYSDGRRTFYGDSVK,GRAAGTFDW,61 nM,1 of 3,0 of 9
GFTLVSYGIS,VLYSDGRHTFYGDSVK,GRAAGTFDS,nd,0 of 3,0 of 9
GFTLNSYGIS,VLYSQGRRTFYGDSVK,GIAAGTFDS,5.0 µM,1 of 3,4 of 9
QFFLNSYGIS,VGYSDGRRTFYGDSVK,GRAAGTFDS,82 µM,2 of 3,4 of 9
GFTLNEYGIS,VFYSPGRRTFYGDSVK,GRAAGTFDS,nd,0 of 3,3 of 9
GFTLNSYGIS,VMYSRGRRTFYGDSVI,GRAAGTFDS,nd,0 of 3,0 of 9
CFTLNSYGIS,VPYSDGRRTFYWDSVK,GRAAGTFDS,nd,0 of 3,0 of 9
GFTLNSGGIS,VVYSDGRRTFYGDSVK,GRFAGTFDS,nd,0 of 3,0 of 9
GFTLNSYGIS,VNYSDGRPTFYGDNVK,GRAAGTFDS,nd,0 of 3,1 of 9
GFTLNSYGIS,VRYSDGRRTFYGDSVK,TRAANTFDS,nd,0 of 3,0 of 9
GFTLNSYGFS,VTYSDGRRTFYGDSVK,GRAAGTFDS,nd,0 of 3,2 of 9
GFTLNSYGIS,VLYSDGRRTFYGDQVK,GRAAGTFDS,130 nM,3 of 3,0 of 9
GFTLNSYGIS,VAYSDGRRTFYGDSVK,GRAAGFFDS,940 nM,1 of 3,1 of 9
GFTLNSYGIS,VFYSDGRRTFYGDSFK,GRAAGTFDS,nd,0 of 3,0 of 9
GFTTNSYGIS,VQYSDGRQTFYGDSVK,GRAAGTFDS,nd,0 of 3,0 of 9
GFTLNSYGNS,FVYSDGRRTFYGDSVK,GRAAGTFDS,160 µM,2 of 3,4 of 9
GFTLNVYGIS,VDISDGRRTFYGDSVK,GRAAGTFDS,nd,0 of 3,5 of 9
GFTLNSYGIS,VCYSDGRRTFYGDSMK,DRAAGTFDS,2.2 µM,2 of 3,0 of 9
GFTLNSYMIS,VNYSDGRRTFYGDSVK,YRAAGTFDS,nd,0 of 3,0 of 9
GFTLNSYGIS,VDYSDGQRTFYGDSVK,GEAAGTFDS,nd,0 of 3,0 of 9
GFTLNGYGIS,VYYSDGRRTFYGDSVK,GRAAGTFDS,nd,0 of 3,1 of 9
GFTLNSYGIS,VKYSDGRHTFYGDSVK,GRAAGTFDF,6.4 µM,1 of 3,1 of 9
GFTLNSYGIS,VCVSMGRRTFYGDSVK,GRAAGTFDS,nd,0 of 3,0 of 9
GFTLNSYGIS,VCYSDGRRTFYGFSVK,GRAPGTFDS,12 µM,2 of 3,4 of 9
GFTLNSYKIS,VMYSDGRRTFYGWSVK,GRAAGTFDS,nd,0 of 3,2 of 9
GFTLNSYGIS,VFYSWGRRTAYGDSVK,GRAAGTFDS,13 µM,3 of 3,3 of 9
GFKSNSYGIS,VAYSDGRRTFYGDSVK,GRAAGTFDS,nd,0 of 3,0 of 9
GFTLDSYGIS,VTYSDGRPTFYGDSVK,GRAAGTFDS,29 µM,2 of 3,4 of 9
GFTLNSYGIS,VNYLDGRRTFYGDSVK,GRAVGTFDS,16 µM,2 of 3,4 of 9
GFTLNSYGIS,VVYSKGRRTFYSDSVK,GRAAGTFDS,nd,0 of 3,1 of 9
GFTLNSYGIS,VWYSDGRRTFYGDSVK,GRPQGTFDS,nd,0 of 3,2 of 9
GFTLNSYGIS,VQYSDLRRTFYGDRVK,GRAAGTFDS,7.6 µM,2 of 3,2 of 9
GFTLNSYGIS,VHYSDGRRTFYGDSVK,GRAANTFDS,33 µM,1 of 3,0 of 9
GTTLNSYGIS,VRYSDGRRTFYGDSVK,GRAAETFDS,nd,0 of 3,0 of 9
GFTLNSYGIS,VDYRDGRRTFYGDSVK,GRAAGTFDS,4.1 nM,3 of 3,0 of 9
GFTLNSYGIM,VSYSDGRRTFYGDSVK,GRAAGTFES,9.5 µM,1 of 3,1 of 9
GFTRNSYGIS,VHYSDGRRTFYPDSVK,GRAAGTFDS,12 µM,1 of 3,0 of 9
GFTLNSYRIS,VNYSDGRRTFYGDSVK,GRAAGTFDS,nd,0 of 3,0 of 9
GFTLNSYGIE,VKYSDGRQTFYGDSVK,GRAAGTFDS,nd,0 of 3,1 of 9
IFTLNSYGIS,VRYSDGRWTFYGDSVK,GRAAGTFDS,nd,0 of 3,1 of 9
GFTLNSLGIS,VPYSDWRRTFYGDSVK,GRAAGTFDS,1.2 µM,1 of 3,1 of 9
GFTLNSYGIS,GKESDGRRTFYGDSVK,GRAAGTFDS,nd,0 of 3,1 of 9
GFTLNSYGIS,MMYSDGKRTFYGDSVK,GRAAGTFDS,2.9 µM,1 of 3,1 of 9
GFTFNSYGIS,VVYSDGRTTFYGDSVK,GRAAGTFDS,38 µM,3 of 3,2 of 9
GFTLNSYGIS,VNYSDGRRTFCGDSVK,GRAAGTFDS,nd,0 of 3,0 of 9
GFTLNSYGIS,VQYSDGRRTWYGDSVK,GRAAGCFDS,nd,0 of 3,2 of 9
GFTYNSYGIS,VWYSDGRRTFNGDSVK,GRAAGTFDS,nd,0 of 3,0 of 9

A selection of 6 entries from above:

CDR-H1,CDR-H2,CDR-H3,Kd,seen in,signal with controls
GFTLNSYGIS,VLYSDGRRTFYGDSVK,GRAAGTFDW,61 nM,1 of 3,0 of 9
GFTLNSYGIS,VCYSDGRRTFYGFSVK,GRAPGTFDS,12 µM,2 of 3,4 of 9
GFKSNSYGIS,VAYSDGRRTFYGDSVK,GRAAGTFDS,nd,0 of 3,0 of 9
GFTTNSYGIS,VQYSDGRQTFYGDSVK,GRAAGTFDS,nd,0 of 3,0 of 9
GFTLNSLGIS,VPYSDWRRTFYGDSVK,GRAAGTFDS,1.2 µM,1 of 3,1 of 9
GFTRNSYGIS,VHYSDGRRTFYPDSVK,GRAAGTFDS,12 µM,1 of 3,0 of 9